A short description of the data set: Aqueous solubility of the compound at pH 4. The note with it: buffer.

Values after ≈ are worked out from the molar mass of the structure shown.

Compound `O=C(O)c1cc(-c2ccc([C@@]3(O)C[C@H]4CC[C@@H](C3)N4)cc2)c2ccc(-c3ccc(C(F)(F)F)cc3)cc2c1` came in with a solubility of 1.83 µg/mL (≈ 3.54 µM).

The values are drawn from ChEMBL document CHEMBL5042543, “Bridged Piperidine Analogues of a High Affinity Naphthalene-Based P2Y14R Antagonist” (J Med Chem, 2022).
